Here are results for two molecules from US11925625B2, “Methods of treating chemical gas exposure” (dated 2024).

The structures appear in SMILES notation. Where only a bound is given, the exact number is not on record here.

The assay has as its system Chlorine-Induced Acute Lung Injury (ALI) Sheep Model. Kind of assay: Chlorine-induced acute lung injury (ALI) sheep model, Protocol 2: PaO2/FiO2.

`COc1ccc(C2CNC(=O)C2)cc1OC1CCCC1` (stereo not drawn) returned a PaO2/FiO2 (rolipram 3 mg, 30-min infusion, 1 h post-chlorine gas exposure (210 ppm, 30 min), 1 animal, interim) of 522.9 mm Hg; a PaO2/FiO2 (rolipram 3 mg, 3 h post-chlorine gas exposure, 1 animal, interim) of 315.3 mm Hg; a PaO2/FiO2 (rolipram 3 mg, 6 h post-chlorine gas exposure, 1 animal, interim) of 391.6 mm Hg; a PaO2/FiO2 (rolipram 3 mg, 12 h post-chlorine gas exposure, 1 animal, interim) of 322.7 mm Hg; a PaO2/FiO2 (rolipram 3 mg, 18 h post-chlorine gas exposure, 1 animal, interim) of 235.8 mm Hg; a PaO2/FiO2 (rolipram 3 mg, 24 h post-chlorine gas exposure, 1 animal, interim) of 144.5 mm Hg. The PaO2/FiO2 runs as follows: (rolipram 3 mg, 30 h post-chlorine gas exposure, 1 animal, interim) 84.6 mm Hg; (rolipram 3 mg, 36 h post-chlorine gas exposure, 1 animal, interim) 97.9 mm Hg; (rolipram 3 mg, 42 h post-chlorine gas exposure, 1 animal, interim) 102.7 mm Hg; (rolipram 3 mg, 48 h post-chlorine gas exposure, 1 animal, interim) 59 mm Hg; (rolipram 3 mg, after the 24-hour time-point post-chlorine gas exposure (less than 200 or less than 100)) “less than 200 mm Hg”; (rolipram 3 mg, at the 18 hour time-point (mild ARDS)) “less than 300 mm Hg”.

The molecule `CC(C)C(=O)c1c(C(C)C)nn2ccccc12` displayed a PaO2/FiO2 (High MN-166 20 mg, 30-min infusion, time-point 0 h, 1 animal, interim) of 650 mm Hg; a PaO2/FiO2 (High MN-166 20 mg, 1 h post-chlorine gas exposure, 1 animal, interim) of 415.1 mm Hg; a PaO2/FiO2 (High MN-166 20 mg, 3 h post-chlorine gas exposure, 1 animal, interim) of 331.7 mm Hg; a PaO2/FiO2 (High MN-166 20 mg, 6 h post-chlorine gas exposure, 1 animal, interim) of 329 mm Hg; a PaO2/FiO2 (High MN-166 20 mg, 12 h post-chlorine gas exposure, 1 animal, interim) of 461.3 mm Hg; a PaO2/FiO2 (High MN-166 20 mg, 18 h post-chlorine gas exposure, 1 animal, interim) of 313.2 mm Hg. Also, the PaO2/FiO2 (High MN-166 20 mg, 24 h post-chlorine gas exposure, 1 animal, interim) was 392.2 mm Hg; the PaO2/FiO2 (High MN-166 20 mg, 30 h post-chlorine gas exposure, 1 animal, interim) was determined as 434.2 mm Hg; the PaO2/FiO2 (High MN-166 20 mg, 36 h post-chlorine gas exposure, 1 animal, interim) is 409.6 mm Hg; the PaO2/FiO2 (High MN-166 20 mg, 42 h post-chlorine gas exposure, 1 animal, interim) is listed as 466.7 mm Hg; the PaO2/FiO2 (High MN-166 20 mg, 48 h post-chlorine gas exposure, 1 animal, interim) was determined as 445.7 mm Hg; the PaO2/FiO2 (Low MN-166 10 mg, 30-min infusion, time-point 0 h, 1 animal, interim) stood at 507.1 mm Hg. For the same molecule, the PaO2/FiO2 is reported as 295.8 mm Hg (Low MN-166 10 mg, 1 h post-chlorine gas exposure, 1 animal, interim); 292.6 mm Hg (Low MN-166 10 mg, 3 h post-chlorine gas exposure, 1 animal, interim); 368.5 mm Hg (Low MN-166 10 mg, 6 h post-chlorine gas exposure, 1 animal, interim); 329.3 mm Hg (Low MN-166 10 mg, 12 h post-chlorine gas exposure, 1 animal, interim); 340 mm Hg (Low MN-166 10 mg, 18 h post-chlorine gas exposure, 1 animal, interim); 382.3 mm Hg (Low MN-166 10 mg, 24 h post-chlorine gas exposure, 1 animal, interim). Besides, the PaO2/FiO2 reads like this: (Low MN-166 10 mg, 30 h post-chlorine gas exposure, 1 animal, interim) 381.2 mm Hg; (Low MN-166 10 mg, 36 h post-chlorine gas exposure, 1 animal, interim) 365.8 mm Hg; (Low MN-166 10 mg, 42 h post-chlorine gas exposure, 1 animal, interim) 335.6 mm Hg; (Low MN-166 10 mg, 48 h post-chlorine gas exposure, 1 animal, interim) 339.3 mm Hg; (high dose MN-166 20 mg, all time-points, never decreased below) not below 300 mm Hg; (high dose MN-166 20 mg, by the 30-hour time-point) “above 400 mm Hg”.
